Data from patent US11866518B2, “Bicyclic peptide ligands specific for TSLP” (BicycleTx Limited, priority 2020, dated 2024).

Biological target: T1, TSLP (Homo sapiens, UniProt Q969D9)
T1 sequence (Q969D9 29-159): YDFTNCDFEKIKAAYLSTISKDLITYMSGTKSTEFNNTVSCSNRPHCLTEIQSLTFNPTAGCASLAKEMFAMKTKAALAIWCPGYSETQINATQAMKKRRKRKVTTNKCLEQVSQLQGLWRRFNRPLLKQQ
Test: Human TSLP Surface Plasmon Resonance (SPR) binding assay
Design: The resulting construct spCD33-6×HN-TEV-hTSLP(29-159)-Avi; 6xHN tag with TEV site (N, cleaved yes); made in house; host or cells: Expi293F cells
Conditions: biotinylated human TSLP immobilized on streptavidin chip; 20° C.; steady-state or kinetic 1:1 fit; read-out: hTSLP SPR Kd

In order of rising Kd:
1. Ac-(SEQ ID NO: 2) [Example 2]  0.0024 µM
2. Ac-(SEQ ID NO: 3) [Example 3]  0.0025 µM
3. tertBuCO-(SEQ ID NO: 3) [Example 6]  0.0028 µM
4. R^1-(SEQ ID NO: 3) [Example 7]  0.0031 µM
5. Ac-(SEQ ID NO: 7) [Example 9]  0.0048 µM
6. Ac-(SEQ ID NO: 10) [Example 12]  0.0059 µM
7. Ac-(SEQ ID NO: 11) [Example 13]  0.006 µM
8. Ac-(SEQ ID NO: 22) [Example 24]  0.01 µM
9. Ac-(SEQ ID NO: 30) [Example 34]  0.015 µM
10. Ac-(SEQ ID NO: 31) [Example 35]  0.015 µM
11. Ac-(SEQ ID NO: 36) [Example 40]  0.022 µM
12. Ac-(SEQ ID NO: 44) [Example 52]  0.038 µM
13. CC(C)C[C@@H]1NC(=O)[C@H](Cc2c[nH]c3ccccc23)NC(=O)[C@@H]2CSCCC(=O)N3CN(CN(C3)C(=O)CCSC[C@H](N)C(=O)N[C@@H](CC(=O)O)C(=O)N[C@@H](Cc3c[nH]c4ccccc34)C(=O)N[C@@H](Cc3c[nH]cn3)C(=O)N[C@@H](Cc3c[nH]c4ccccc34)C(=O)N[C@@H](CCC(=O)O)C(=O)N[C@@H](Cc3ccc(O)cc3)C(=O)N[C@@H](CC(=O)O)C(=O)N2)C(=O)CCSC[C@@H](C(=O)N[C@@H](C)C(=O)N2CCC[C@H]2C(=O)N[C@@H](CC(=O)O)C(=O)N[C@@H](Cc2c[nH]cn2)C(=O)N[C@@H](CC(C)C)C(=O)N2CCC[C@H]2C(N)=O)NC(=O)[C@H](CO)NC1=O [Example 224, (SEQ ID NO: 144)-APDHLP]  0.066 µM
14. DDEIMQ-(SEQ ID NO: 38)-A [Example 64]  0.069 µM
15. SEAQET-(SEQ ID NO: 144) [Example 214]  0.071 µM
16. CC[C@H](C)[C@@H]1NC(=O)[C@@H](NC(=O)[C@H](CC(N)=O)NC(=O)[C@H](CCCNC(=N)N)NC(=O)[C@@H](N)CCC(=O)O)CSCCC(=O)N2CN3CN(C2)C(=O)CCSC[C@H](NC(=O)[C@H](CC(=O)O)NC(=O)[C@H](Cc2ccc(O)cc2)NC(=O)[C@H](CCCCN)NC(=O)[C@H](Cc2c[nH]c4ccccc24)NC(=O)[C@H](CC(=O)O)NC(=O)[C@H](Cc2c[nH]c4ccccc24)NC1=O)C(=O)N[C@@H](Cc1c[nH]c2ccccc12)C(=O)N[C@@H](CC(C)C)C(=O)NCC(=O)N[C@H](C(=O)N[C@@H](C)C(N)=O)CSCCC3=O [Example 225, ERN-(SEQ ID NO: 155)-A]  0.071 µM
17. (SEQ ID NO: 144)-DPSSKQ [Example 226]  0.076 µM
18. Ac-(SEQ ID NO: 53) [Example 72]  0.084 µM
19. CC(C)C[C@@H]1NC(=O)[C@H](Cc2c[nH]c3ccccc23)NC(=O)[C@H](Cc2c[nH]c3ccccc23)NC(=O)[C@H](CO)NC(=O)[C@H](CO)NC(=O)[C@@H]2CSCCC(=O)N3CN(CN(C3)C(=O)CCSC[C@H](NC(=O)[C@@H]3CCCN3C(=O)[C@H](Cc3ccc(O)cc3)NC(=O)[C@@H](NC(=O)[C@H](CC(=O)O)NC(=O)[C@@H](NC(=O)[C@@H](N)CCC(=O)O)C(C)C)[C@@H](C)O)C(=O)N[C@@H](CCCNC(=N)N)C(=O)N[C@@H](CC(=O)O)C(=O)N[C@@H](CC(C)C)C(=O)N[C@@H](CC(=O)O)C(=O)N3CCC[C@H]3C(=O)N[C@@H](Cc3c[nH]c4ccccc34)C(=O)N[C@@H]([C@@H](C)O)C(=O)N2)C(=O)CCSC[C@@H](C(=O)N[C@@H](C)C(N)=O)NC1=O [Example 192, EVDTYP-(SEQ ID NO: 122)-A]  0.084 µM
20. Ac-(SEQ ID NO: 59) [Example 78]  0.094 µM
21. CC(C)C[C@@H]1NC(=O)[C@H](Cc2c[nH]c3ccccc23)NC(=O)[C@H](CCC(N)=O)NC(=O)[C@@H](NC(=O)[C@H](CCCNC(=N)N)NC(=O)[C@@H]2CCCN2C(=O)[C@H](CCCCN)NC(=O)[C@@H]2CCCN2C(=O)[C@@H]2CCCN2C(=O)[C@@H](N)CC(=O)O)CSCCC(=O)N2CN3CN(C2)C(=O)CCSC[C@H](NC(=O)[C@H](CC(=O)O)NC(=O)[C@H](CCC(=O)O)NC1=O)C(=O)N[C@@H](Cc1c[nH]c2ccccc12)C(=O)N[C@@H](CCCNC(=N)N)C(=O)NCC(=O)N[C@@H](Cc1ccccc1)C(=O)N[C@H](C(=O)N[C@@H](C)C(N)=O)CSCCC3=O [Example 87, DPPKPR-(SEQ ID NO: 38)-A]  0.12 µM
22. CC(C)C[C@@H]1NC(=O)[C@H](Cc2c[nH]c3ccccc23)NC(=O)[C@H](CC(C)C)NC(=O)[C@@H](NC(=O)[C@@H](NC(=O)[C@@H]2CCCN2C(=O)[C@@H](N)CO)[C@@H](C)O)CSCCC(=O)N2CN3CN(C2)C(=O)CCSC[C@H](NC(=O)[C@H](CC(=O)O)NC(=O)[C@H](CC(=O)O)NC1=O)C(=O)N[C@@H](Cc1c[nH]c2ccccc12)C(=O)N[C@@H](CCCNC(=N)N)C(=O)NCC(=O)N[C@@H](Cc1ccccc1)C(=O)N[C@H](C(=O)N[C@@H](C)C(N)=O)CSCCC3=O [Example 85, SPT-(SEQ ID NO: 65)-A]  0.12 µM
23. A-(SEQ ID NO: 144)-YDNEMSA [Example 213]  0.12 µM
24. Ac-(SEQ ID NO: 66) [Example 86]  0.12 µM
25. CC(C)C[C@@H]1NC(=O)[C@H](Cc2c[nH]c3ccccc23)NC(=O)[C@H](Cc2c[nH]c3ccccc23)NC(=O)[C@H](CCC(N)=O)NC(=O)[C@H](CCC(=O)O)NC(=O)[C@@H]2CSCCC(=O)N3CN(CN(C3)C(=O)CCSC[C@@H](C(=O)N[C@@H](C)C(N)=O)NC1=O)C(=O)CCSC[C@H](NC(=O)[C@H](C)NC(=O)CNC(=O)[C@@H](N)Cc1ccc(O)cc1)C(=O)N[C@@H](C(C)C)C(=O)N[C@@H](CC(=O)O)C(=O)N[C@@H](CC(C)C)C(=O)N[C@@H](CC(=O)O)C(=O)N1CCC[C@H]1C(=O)N[C@@H](Cc1c[nH]c3ccccc13)C(=O)N[C@@H]([C@@H](C)O)C(=O)N2 [Example 166, YGA-(SEQ ID NO: 124)-A]  0.12 µM
26. A-(SEQ ID NO: 122)-SSDTTDA [Example 176]  0.3 µM
27. R^7-(SEQ ID NO: 144) [Example 219]  0.55 µM
28. CC(=O)N[C@H]1CSCCC(=O)N2CN3CN(C2)C(=O)CCSC[C@H](NC(=O)[C@H](CC(=O)O)NC(=O)[C@H](CCC(=O)O)NC(=O)[C@H](CC(C)C)NC(=O)[C@H](Cc2c[nH]c4ccccc24)NC(=O)[C@H](CCC(N)=O)NC1=O)C(=O)N[C@@H](Cc1c[nH]c2ccccc12)C(=O)N[C@@H](CCCNC(=N)N)C(=O)NCC(=O)N[C@@H](Cc1c[nH]c2ccccc12)C(=O)N[C@H](C(N)=O)CSCCC3=O [Example 140, Ac-(SEQ ID NO: 99)]  0.55 µM
29. Ac-(SEQ ID NO: 104) [Example 145]  0.9 µM
